Among the data in US7217810B2, “High level production of arbutin in green plants and microbes” (E. I. du Pont de Nemours and Company, priority 2003, dated 2007) are turnover number values, retold here.

The structures appear in SMILES notation.

This experiment deals with T1, UGT72B1 (Arabidopsis thaliana, UniProt Q9M156).
T1 sequence (Q9M156 1-480): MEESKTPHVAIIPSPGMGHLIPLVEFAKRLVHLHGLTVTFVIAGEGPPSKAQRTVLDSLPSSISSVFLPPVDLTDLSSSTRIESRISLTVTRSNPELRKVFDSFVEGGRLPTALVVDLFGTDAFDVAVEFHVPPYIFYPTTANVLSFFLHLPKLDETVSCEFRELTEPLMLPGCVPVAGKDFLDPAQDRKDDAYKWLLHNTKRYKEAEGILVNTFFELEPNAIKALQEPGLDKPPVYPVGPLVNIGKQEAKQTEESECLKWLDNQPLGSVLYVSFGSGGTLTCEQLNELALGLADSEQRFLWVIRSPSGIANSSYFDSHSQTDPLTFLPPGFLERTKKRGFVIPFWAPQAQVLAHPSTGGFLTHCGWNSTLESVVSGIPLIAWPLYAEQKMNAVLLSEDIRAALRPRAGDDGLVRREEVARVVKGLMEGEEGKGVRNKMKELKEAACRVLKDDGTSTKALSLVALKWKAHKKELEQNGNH
To be noted: 30° C., translated from cited specific activity.

Take `O=C(O)c1cc(O)ccc1O` [2,5-dihydroxybenzoic acid]: the turnover number was around 0.6 s⁻¹.
